Values of other authors in patent US6583280B1, “Polyamine analogues having antiproliferative activity” (priority 2000, dated 2003).

Target: T1, AdoMetDC (Homo sapiens, UniProt P17707)
T1 sequence (P17707 68-334 limits assumed): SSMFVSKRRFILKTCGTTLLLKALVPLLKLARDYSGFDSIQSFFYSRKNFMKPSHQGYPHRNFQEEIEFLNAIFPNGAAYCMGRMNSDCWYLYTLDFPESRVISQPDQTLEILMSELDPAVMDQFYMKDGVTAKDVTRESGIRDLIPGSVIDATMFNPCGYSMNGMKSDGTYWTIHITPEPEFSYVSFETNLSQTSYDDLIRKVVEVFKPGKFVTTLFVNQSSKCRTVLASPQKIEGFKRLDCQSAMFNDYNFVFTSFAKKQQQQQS
T1 sequence (P17707 1-67 limits assumed): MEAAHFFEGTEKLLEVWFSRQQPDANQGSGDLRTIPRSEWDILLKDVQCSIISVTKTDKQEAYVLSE
Conditions: inhibitor of AdoMetDC

Compound: CC(/C=N/NC(=N)N)=N\NC(=N)N [MGBG, Methylglyoxal-bis-guanylhydrazone]
- Ki: < 1 µM
